Source: patent US10980754B2, “Anti-fungal compounds” (SAINT LOUIS UNIVERSITY, priority 2016, dated 2021)
In brackets after ≈: the same amount, converted by molar mass.

Legend:
[1] = test system: C. neoformans var grubii, KN99; test: Inhibition of C. neoformans growth, limiting dilution assay (MIC); type: cell-based; conditions: Cryptococcus neoformans
[2] = Cytotoxicity in hepatoma cells (MTS); conditions: human

`O=c1cccccc1S` [Compound 363] gave an MIC [1] of 0.2 µM (≈ 0.0276 µg/mL) and a CC50 at 72 h [2] of 21 µM.
